In assay [1] the target is T1, ACK1 (Homo sapiens (Human), UniProt Q07912).
In assay [2] the target is T1, ACK1. Nature of the assay: biochemical. The note with it: 40 min; for remaining activity at 0.1 µM: read-out: Ack1 activation rate % (0.1 μM); for remaining activity at 1 µM: read-out: Ack1 activation rate % (1 μM).
Assay [3] deals with H3122 NSCLC lung cancer cell line xenograft. The note with it: mouse, in vivo.

Protein sequences, listed by entry. Tags and fused reporters are not part of them.
UniProt Q07912, whole entry, species assumed: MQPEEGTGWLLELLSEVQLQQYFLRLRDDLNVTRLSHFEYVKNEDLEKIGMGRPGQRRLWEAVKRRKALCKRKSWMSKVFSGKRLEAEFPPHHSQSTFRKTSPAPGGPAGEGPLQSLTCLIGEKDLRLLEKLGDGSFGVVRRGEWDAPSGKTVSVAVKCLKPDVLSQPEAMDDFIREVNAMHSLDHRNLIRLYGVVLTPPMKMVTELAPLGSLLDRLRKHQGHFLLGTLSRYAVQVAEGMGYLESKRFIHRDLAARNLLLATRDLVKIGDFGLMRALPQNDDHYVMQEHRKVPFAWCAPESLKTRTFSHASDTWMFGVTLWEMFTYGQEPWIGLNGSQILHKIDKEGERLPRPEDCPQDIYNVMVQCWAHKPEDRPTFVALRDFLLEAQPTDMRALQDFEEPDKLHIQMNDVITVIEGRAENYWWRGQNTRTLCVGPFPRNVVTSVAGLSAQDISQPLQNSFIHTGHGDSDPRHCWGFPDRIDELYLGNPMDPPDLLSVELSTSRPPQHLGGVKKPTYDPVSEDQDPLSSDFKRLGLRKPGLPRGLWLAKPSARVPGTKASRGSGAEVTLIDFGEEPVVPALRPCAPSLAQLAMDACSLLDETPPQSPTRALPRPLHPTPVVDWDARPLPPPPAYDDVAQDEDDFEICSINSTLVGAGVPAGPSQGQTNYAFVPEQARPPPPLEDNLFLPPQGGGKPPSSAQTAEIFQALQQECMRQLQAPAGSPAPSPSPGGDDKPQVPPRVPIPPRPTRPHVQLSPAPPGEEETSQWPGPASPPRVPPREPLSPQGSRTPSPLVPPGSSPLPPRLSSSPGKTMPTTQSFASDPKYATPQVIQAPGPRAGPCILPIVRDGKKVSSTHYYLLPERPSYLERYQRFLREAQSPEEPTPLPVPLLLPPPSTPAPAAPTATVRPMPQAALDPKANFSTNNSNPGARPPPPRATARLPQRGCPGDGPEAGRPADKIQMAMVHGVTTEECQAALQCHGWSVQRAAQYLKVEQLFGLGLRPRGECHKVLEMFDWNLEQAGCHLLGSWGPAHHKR

As to `Cc1nc(Nc2ncc(C(=O)Nc3c(C)cccc3Cl)s2)cc(N2CCN(CCO)CC2)n1` [Dasatinib, reference compound], the “phosphorylation rate of ACK1 (inhibition of ACK1)” value at ACK1 [1] is “significantly lower”.

With `CCOc1cc(N2CCN(C(C)=O)CC2)ccc1Nc1nc(Nc2ccc(N3CCN(C(C)=O)CC3)cc2OC)ncc1Cl` [Example 1, 1-(4-(4-(4-(4-(4-acetylpiperazin-1-yl)-2-ethoxyphenylamino)-5-chloropyrimidin-2-ylamino)-3-methoxyphenyl)piperazin-1-yl)ethanone], at ACK1 [2], the remaining activity at 0.1 µM turned out to be 4% and the remaining activity at 1 µM was 1%. At ACK1 [1], the “phosphorylation rate of ACK1 (inhibition of ACK1)” value is “significantly lowering the concentration of ACK1”.

On to `C[C@@H](Oc1cc(-c2cnn(C3CCNCC3)c2)cnc1N)c1c(Cl)ccc(F)c1Cl` [Crizotinib, reference compound], for which the “increase of tumor volume compared to that of the first day” value in assay [3] is recorded as “about 2.3 fold”.

Regarding `COc1cc(N2CCN(CCO)CC2)ccc1Nc1ncc(C(F)(F)F)c(Nc2ccc(N3CCN(C(C)=O)CC3)cc2OC)n1` [Example 68, 1-(4-(4-((2-((4-(4-(2-hydroxyethyl)piperazin-1-yl)-2-methoxyphenyl)amino)-5-(trifluoromethyl)pyrimidin-4-yl)amino)-3-methoxyphenyl)piperazin-1-yl)ethanone], at ACK1 [2], the remaining activity at 0.1 µM was found to be 1% and the remaining activity at 1 µM is 0%.

Consider `COc1cc(N2CCN(C(C)=O)CC2)ccc1Nc1ncc(Cl)c(Nc2ccc(N3CCN(C(=O)CO)CC3)cc2OC(F)F)n1` [Example 88, 1-(4-(4-((2-((4-(4-acetylpiperazin-1-yl)-2-methoxyphenyl)amino)-5-chloropyrimidin-4-yl)amino)-3-(difluoromethoxy)phenyl)piperazin-1-yl)-2-hydroxyethanone], for which, at ACK1 [2], the remaining activity at 0.1 µM is 0% and the remaining activity at 1 µM stood at 0%.

For the molecule `COc1cc(N2CCN(S(C)(=O)=O)CC2)ccc1Nc1ncc(C(F)(F)F)c(Nc2ccc(N3CCN(C(C)=O)CC3)cc2OC)n1` [Example 67, 1-(4-(3-methoxy-4-((2-((2-methoxy-4-(4-(methylsulfonyl)piperazin-1-yl)phenyl)amino)-5-(trifluoromethyl)pyrimidin-4-yl)amino)phenyl)piperazin-1-yl)ethanone], on ACK1 [2], the remaining activity at 0.1 µM was 2% and the remaining activity at 1 µM turned out to be 0%.

Consider `COc1cc(N2CCN(C(=O)CO)CC2)ccc1Nc1ncc(Cl)c(Nc2ccc(N3CCN(C(C)=O)CC3)cc2OC)n1` [Example 83, 1-(4-(4-((4-((4-(4-acetylpiperazin-1-yl)-2-methoxyphenyl)amino)-5-chloropyrimidin-2-yl)amino)-3-methoxyphenyl)piperazin-1-yl)-2-hydroxyethanone], for which, on ACK1 [2], the remaining activity at 0.1 µM came out at 0% and the remaining activity at 1 µM was determined as 0%.

For `COc1cc(N2CCN(C(C)=O)CC2)ccc1Nc1ncc(Cl)c(Nc2ccc(N3CCN(S(N)(=O)=O)CC3)cc2OC)n1` [Example 21, 4-(4-(2-(4-(4-acetylpiperazin-1-yl)-2-methoxyphenylamino)-5-chloropyrimidin-4-ylamino)-3-methoxyphenyl)piperazin-1-sulfonamide], on ACK1 [2], the remaining activity at 0.1 µM came to 0% and the remaining activity at 1 µM amounted to 0%.

As for `COc1cc(N2CCN(CCO)CC2)ccc1Nc1ncc(Cl)c(Nc2ccc(N3CCN(C(C)=O)CC3)cc2OC)n1` [Example 85, 1-(4-(4-((5-chloro-2-((4-(4-(2-hydroxyethyl)piperazin-1-yl)-2-methoxyphenyl)amino)pyrimidin-4-yl)amino)-3-methoxyphenyl)piperazin-1-yl)ethanone], on ACK1 [2], the remaining activity at 0.1 µM turned out to be 0% and the remaining activity at 1 µM was 0%.

For the molecule `CCCOc1cc(N2CCN(C(C)=O)CC2)ccc1Nc1nc(Nc2ccc(N3CCN(C(C)=O)CC3)cc2)ncc1Cl` [Example 4, 1-(4-(4-(4-(4-(4-acetylpiperazin-1-yl)-2-propoxyphenylamino)-5-chloropyrimidin-2-ylamino)phenyl)piperazin-1-yl)ethanone], at ACK1 [2], the remaining activity at 0.1 µM amounted to 12% and the remaining activity at 1 µM was determined as 1%.

For the molecule `COc1cc(N2CCN(C(C)=O)CC2)ccc1Nc1ncc(Cl)c(Nc2ccc(N3CCN(C(C)=O)CC3)cc2OC(C)C)n1` [Example 3, 1-(4-(4-(4-(4-(4-acetylpiperazin-1-yl)-2-isopropoxyphenylamino)-5-chloropyrimidin-2-ylamino)-3-methoxyphenyl)piperazin-1-yl)ethanone], at ACK1 [2], the remaining activity at 0.1 µM was found to be 2% and the remaining activity at 1 µM stood at 2%.

Regarding `COc1cc(N2CCN(C(C)=O)CC2)ccc1Nc1ncc(C(F)(F)F)c(Nc2ccc(N3CCN(C)CC3)cc2OC)n1` [Example 59], at ACK1 [2], the remaining activity at 0.1 µM came to 2% and the remaining activity at 1 µM amounted to 0%.

Take `COc1cc(N2CCN(C(C)=O)CC2)ccc1Nc1ncc(F)c(Nc2ccc(N3CCN(C(=O)CO)CC3)cc2OC(F)F)n1` [Example 44, 1-(4-(4-(2-(4-(4-acetylpiperazin-1-yl)-2-methoxyphenylamino)-5-fluoropyrimidin-4-ylamino)-3-(difluoromethoxy)phenyl)piperazin-1-yl)-2-hydroxyethanone]: on ACK1 [2], the remaining activity at 0.1 µM is 2% and the remaining activity at 1 µM was determined as 1%.

Regarding `COc1cc(N2CCN(C(C)=O)CC2)ccc1Nc1ncc(F)c(Nc2ccc(N3CCNCC3)cc2OC)n1` [Example 25, 1-(4-(4-(5-fluoro-4-(2-methoxy-4-(piperazin-1-yl)phenylamino)pyrimidin-2-ylamino)-3-methoxyphenyl)piperazin-1-yl)ethanone], on ACK1 [2], the remaining activity at 0.1 µM was found to be 4% and the remaining activity at 1 µM came out at 0%.

With `COc1cc(N2CCN(C(C)=O)CC2)ccc1Nc1ncc(F)c(Nc2ccc(N3CCN(CCO)CC3)cc2OC(F)F)n1` [Example 42, 1-(4-(4-(4-(2-(difluoromethoxy)-4-(4-(2-hydroxyethyl)piperazin-1-yl)phenylamino)-5-fluoropyrimidin-2-ylamino)-3-methoxyphenyl)piperazin-1-yl)ethanone], at ACK1 [2], the remaining activity at 0.1 µM is 2% and the remaining activity at 1 µM stood at 0%.

On to `COc1cc(N2CCN(C(C)=O)CC2)ccc1Nc1ncc(F)c(Nc2ccc(N3CCN(C)CC3)cc2OC(F)F)n1` [Example 38, 1-(4-(4-(4-(2-(difluoromethoxy)-4-(4-methylpiperazin-1-yl)phenylamino)-5-fluoropyrimidin-2-ylamino)-3-methoxyphenyl)piperazin-1-yl)ethanone], for which, on ACK1 [2], the remaining activity at 0.1 µM was 1% and the remaining activity at 1 µM worked out at 0%.

In the case of `COc1cc(N2CCN(C(C)=O)CC2)ccc1Nc1ncc(Cl)c(Nc2ccc(N3CCN(C(=O)CO)CC3)cc2OC)n1` [Example 14, 1-(4-(4-(2-(4-(4-acetylpiperazin-1-yl)-2-methoxyphenylamino)-5-chloropyrimidin-4-ylamino)-3-methoxyphenyl)piperazin-1-yl)-2-hydroxyethanone], on ACK1 [2], the remaining activity at 0.1 µM was determined as 1% and the remaining activity at 1 µM came out at 0%.

The values are drawn from patent publication US9199944B2 (priority 2012, dated 2015).
